For one assay, the target named is 5-HT2A receptor (Homo sapiens, UniProt P28223). As to conditions: normalized AUC at 5-HT2C / normalized AUC at 5-HT2A.
Another assay has as its target 5-HT2B receptor (Homo sapiens, UniProt P41595). The following applies: normalized AUC at 5-HT2C / normalized AUC at 5-HT2B.

Chains of the proteins cited; added tags and fusions are not shown.
UniProt P28223, whole entry: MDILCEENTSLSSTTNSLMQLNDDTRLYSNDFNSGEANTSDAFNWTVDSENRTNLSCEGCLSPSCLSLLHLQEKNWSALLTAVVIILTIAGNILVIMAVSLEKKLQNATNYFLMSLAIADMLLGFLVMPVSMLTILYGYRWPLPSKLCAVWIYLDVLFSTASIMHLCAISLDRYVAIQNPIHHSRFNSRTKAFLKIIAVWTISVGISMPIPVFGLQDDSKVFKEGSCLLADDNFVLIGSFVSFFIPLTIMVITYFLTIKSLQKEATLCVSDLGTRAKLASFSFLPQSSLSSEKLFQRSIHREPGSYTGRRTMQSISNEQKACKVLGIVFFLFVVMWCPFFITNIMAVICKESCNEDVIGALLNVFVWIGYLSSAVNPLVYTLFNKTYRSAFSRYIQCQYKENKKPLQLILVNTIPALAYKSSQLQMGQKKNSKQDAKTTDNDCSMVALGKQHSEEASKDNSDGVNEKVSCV
UniProt P41595, whole entry: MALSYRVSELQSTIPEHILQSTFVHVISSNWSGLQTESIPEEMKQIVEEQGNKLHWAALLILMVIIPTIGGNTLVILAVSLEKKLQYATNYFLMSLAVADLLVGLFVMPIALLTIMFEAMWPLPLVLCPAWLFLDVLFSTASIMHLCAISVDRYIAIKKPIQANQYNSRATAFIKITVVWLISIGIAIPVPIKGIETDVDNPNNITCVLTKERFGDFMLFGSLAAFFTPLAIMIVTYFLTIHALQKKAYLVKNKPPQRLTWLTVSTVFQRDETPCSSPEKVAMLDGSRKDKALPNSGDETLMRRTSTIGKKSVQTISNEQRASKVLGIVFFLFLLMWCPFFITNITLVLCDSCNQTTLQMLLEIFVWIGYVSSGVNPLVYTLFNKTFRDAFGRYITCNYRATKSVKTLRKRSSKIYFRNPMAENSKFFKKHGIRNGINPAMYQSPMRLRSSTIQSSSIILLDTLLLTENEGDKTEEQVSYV

For the molecule `Clc1cccc(N2CCNCC2)c1` [mCPP, meta-chlorophenylpiperazine], on 5-HT2A receptor, the “Selectivity Ratio AUC 2C/2A” value stood at 2.1. Besides, at 5-HT2B receptor, the “Selectivity Ratio AUC 2C/2B” value is recorded as 2.1.

These data come from patent US8420631B2 (dated 2013).
